We go through two compounds from article PMC8565993 (International journal for parasitology, 2020).

Some results are limits rather than exact numbers.

The target of one assay is T1, CpCDPK1 (Cryptosporidium parvum, UniProt A3FQ16).
T1 sequence (A3FQ16 1-538): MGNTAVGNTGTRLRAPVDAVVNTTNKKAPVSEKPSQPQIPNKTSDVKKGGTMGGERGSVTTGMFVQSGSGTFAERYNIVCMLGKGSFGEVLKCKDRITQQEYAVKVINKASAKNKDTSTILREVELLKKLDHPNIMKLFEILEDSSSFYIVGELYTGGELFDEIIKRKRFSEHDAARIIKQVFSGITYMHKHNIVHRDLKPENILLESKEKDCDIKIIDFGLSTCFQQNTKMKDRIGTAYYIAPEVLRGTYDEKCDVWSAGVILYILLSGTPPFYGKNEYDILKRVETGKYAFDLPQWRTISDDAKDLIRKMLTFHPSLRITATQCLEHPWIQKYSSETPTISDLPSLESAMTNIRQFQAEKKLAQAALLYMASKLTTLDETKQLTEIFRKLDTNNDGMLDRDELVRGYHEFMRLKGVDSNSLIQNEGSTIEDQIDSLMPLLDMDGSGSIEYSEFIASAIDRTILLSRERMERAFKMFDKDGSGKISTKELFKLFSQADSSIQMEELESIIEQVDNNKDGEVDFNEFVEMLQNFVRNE
Type of assay: biochemical. To be noted: read-out: CpCDPK1 IC50.

Another assay deals with Human Src (Homo sapiens, UniProt P12931). The assay can be described thus: Human Src kinase inhibition. Type of assay: biochemical. To be noted: read-out: Human Src IC50.

Regarding `CCOc1ccc2cc(-c3nn(CC4CCN(C)CC4)c4ncnc(N)c34)ccc2c1` [BKI-1294], on CpCDPK1, the IC50 was 1 nM.

As to `CCOc1ccc2cc(-c3nn(C(C)(C)C)c(N)c3C(N)=O)cnc2c1` [BKI-1517], on Human Src, the IC50 was greater than 30000 nM.

What is called IC50 is the midpoint of a concentration-inhibition curve.
